Laboratory results reported in patent US12716050B2, “Two methods for preparing universal microbial medium by eutectic system-based cellulose liquefaction” (Xinjiang University, priority 2021, dated 2026).

Experiment: Screening of ionic liquids for dissolving microcrystalline cellulose
Assay type: physicochemical

Measured: Conclusion (dissolution effect of microcrystalline cellulose)

1-butyl-3-methylimidazolium borate
has a poor: No. 4: 10 g IL, 1 g microcrystalline cellulose, 90° C., co-heated | No. 5: 2 g IL, 1.5 g microcrystalline cellulose, 100° C., IL preheated | No. 6: 2 g IL, 1.5 g microcrystalline cellulose, 100° C., IL preheated | No. 7: 10 g IL, 6 g microcrystalline cellulose, 90° C., co-heated
